According to ChEMBL document CHEMBL1201862, “PubChem BioAssay data set” (2004):
Where “and” joins values, the source holds several entries; their conditions need not be identical. Identical values can stand only once. Each block holds one molecule with its values, some of them ahead of it. Calls of active or inactive are those of the source.

Chains of the proteins cited; added tags and fusions are not shown.
UniProt P35372, whole entry: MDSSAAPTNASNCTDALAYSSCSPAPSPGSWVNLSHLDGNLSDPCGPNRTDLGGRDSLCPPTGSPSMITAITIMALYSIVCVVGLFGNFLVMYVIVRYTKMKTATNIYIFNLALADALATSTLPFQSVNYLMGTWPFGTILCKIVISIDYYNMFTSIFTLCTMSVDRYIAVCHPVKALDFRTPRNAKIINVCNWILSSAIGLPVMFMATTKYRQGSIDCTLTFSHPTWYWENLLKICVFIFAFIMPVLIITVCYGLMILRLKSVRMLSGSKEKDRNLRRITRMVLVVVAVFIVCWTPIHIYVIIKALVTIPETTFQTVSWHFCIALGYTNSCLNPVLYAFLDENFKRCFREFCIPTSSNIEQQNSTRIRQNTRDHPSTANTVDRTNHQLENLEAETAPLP

Assays:
Caspase-3 = target: T1, Caspase-3 (Homo sapiens, UniProt P42574); assay: activation of caspase-3 zymogen – biochemical, absorbance, dose response (AID 489014)
T1 sequence (P42574 whole entry): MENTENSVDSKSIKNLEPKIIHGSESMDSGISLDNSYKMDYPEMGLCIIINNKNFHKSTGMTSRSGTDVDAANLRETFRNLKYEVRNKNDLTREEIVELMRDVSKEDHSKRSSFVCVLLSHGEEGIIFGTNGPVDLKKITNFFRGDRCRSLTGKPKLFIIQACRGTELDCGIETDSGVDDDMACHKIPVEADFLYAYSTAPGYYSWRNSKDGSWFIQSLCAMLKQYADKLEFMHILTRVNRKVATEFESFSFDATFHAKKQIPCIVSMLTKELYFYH

Caspase-7 = target: T2, Caspase-7 (Homo sapiens, UniProt P55210); assay: activation of caspase-7 zymogen – biochemical, absorbance, counter-screen for procaspase-3 activator project, dose response (AID 489013)
T2 sequence (P55210 whole entry): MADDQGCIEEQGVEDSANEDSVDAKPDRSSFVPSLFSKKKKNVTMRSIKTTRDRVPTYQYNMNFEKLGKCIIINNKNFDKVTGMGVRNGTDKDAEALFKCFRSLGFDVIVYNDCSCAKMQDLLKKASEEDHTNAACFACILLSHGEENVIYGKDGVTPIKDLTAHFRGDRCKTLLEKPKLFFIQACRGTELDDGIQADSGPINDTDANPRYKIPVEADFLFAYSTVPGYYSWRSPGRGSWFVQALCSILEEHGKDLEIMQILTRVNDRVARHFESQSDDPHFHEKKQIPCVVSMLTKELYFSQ

Mu-type opioid receptor = Mu-type opioid receptor (Homo sapiens, UniProt P35372); format: functional, cell-based;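 also: U2OS cells with beta-arrestin recruitment to OPRM1 by beta-gal complementation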
[1] = Counterscreen for AddAB inhibitors: absorbance-based bacterial cell-based high throughput dose response assay for inhibitors of bacterial viability. [Related pubchem assays (depositor defined):AID435030, AID449728, AID449731, AID488942, AID488955, AID488956]; format: functional

- EC50 (Caspase-3): active: > 9.48 µM
- EC50 (Caspase-7): inactive: > 85.3 µM
Compound: Cc1ccc(S(=O)(=O)Nc2ccc(-c3nc4ccc(C)cc4s3)cc2)cc1

Compound: C#C[C@]1(O)CC[C@H]2[C@@H]3CCC4=CC(=O)CC[C@]4(C)[C@H]3CC[C@@]21C [ETHISTERONE]
- EC50 (Mu-type opioid receptor): inactive: 92.6 µM

Compound: O=c1[nH]c(=O)n([C@H]2C[C@H](O)[C@@H](CO)O2)cc1C(F)(F)F [TRIFLURIDINE]
- IC50 [1]: inactive: > 39.5 µM and inactive: > 39.6 µM
